Results taken from ChEMBL document CHEMBL3880422, “C-terminal modified oxamyl dipeptides as inhibitors of the ICE/ced-3 family of cysteine proteases” (2007).

Amino acid sequences for entries named in this document (tags omitted). A change or cut given only in a name is not applied to a line headed by its entry.
UniProt Q14790: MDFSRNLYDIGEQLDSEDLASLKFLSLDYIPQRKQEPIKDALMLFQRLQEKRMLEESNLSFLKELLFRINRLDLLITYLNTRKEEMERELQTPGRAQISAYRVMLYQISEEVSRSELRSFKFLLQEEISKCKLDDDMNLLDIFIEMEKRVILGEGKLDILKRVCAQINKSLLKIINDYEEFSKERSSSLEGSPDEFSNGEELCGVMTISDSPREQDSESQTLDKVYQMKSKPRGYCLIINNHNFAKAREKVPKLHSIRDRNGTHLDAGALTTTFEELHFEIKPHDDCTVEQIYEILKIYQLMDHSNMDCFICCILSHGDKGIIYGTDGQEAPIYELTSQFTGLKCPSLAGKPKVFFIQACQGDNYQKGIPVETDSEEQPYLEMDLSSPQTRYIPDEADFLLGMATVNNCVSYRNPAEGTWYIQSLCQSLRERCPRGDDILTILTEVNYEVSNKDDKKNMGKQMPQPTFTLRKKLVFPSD

Assays:
[1] = target: T1, Caspase-6 (Homo sapiens) (UniProt P55212); assay: (§1) Inhibition of recombinant MCH2 (unknown origin) assessed as ratio of irreversible rate constant K3 to dissociation constant of the reversible binding step Ki pre-incubated for 60 mins with Acetyl-Tyr-Val-Ala-Asp-amino-4-methylcoumarin substrate followed by enzyme addition by fluorescence based assay
T1 sequence (whole entry): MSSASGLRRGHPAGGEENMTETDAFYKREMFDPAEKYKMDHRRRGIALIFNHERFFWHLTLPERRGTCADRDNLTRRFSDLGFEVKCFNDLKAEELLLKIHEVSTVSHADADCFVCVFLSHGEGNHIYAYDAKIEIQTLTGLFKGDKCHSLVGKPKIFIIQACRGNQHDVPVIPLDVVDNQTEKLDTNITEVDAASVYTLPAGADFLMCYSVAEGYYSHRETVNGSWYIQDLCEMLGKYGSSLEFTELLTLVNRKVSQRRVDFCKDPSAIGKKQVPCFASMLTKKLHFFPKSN

[2] = target: Caspase-8 (Homo sapiens) (UniProt Q14790); assay: Inhibition of recombinant MCH5 (unknown origin) assessed as ratio of irreversible rate constant K3 to dissociation constant of the reversible binding step Ki pre-incubated for 60 mins with Acetyl-Tyr-Val-Ala-Asp-amino-4-methylcoumarin substrate followed by enzyme addition by fluorescence based assay
[3] = target: T2, Caspase-3 (Homo sapiens) (UniProt P42574); assay: as §1, with “CPP32” for “MCH2”
T2 sequence (whole entry): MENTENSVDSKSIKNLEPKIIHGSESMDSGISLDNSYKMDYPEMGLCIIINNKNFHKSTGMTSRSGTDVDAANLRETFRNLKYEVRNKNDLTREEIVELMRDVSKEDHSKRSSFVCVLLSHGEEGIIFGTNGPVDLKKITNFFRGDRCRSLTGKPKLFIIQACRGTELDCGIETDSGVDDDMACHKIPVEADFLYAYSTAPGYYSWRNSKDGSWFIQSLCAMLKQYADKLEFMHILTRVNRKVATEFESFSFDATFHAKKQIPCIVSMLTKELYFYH

[4] = target: T3, Caspase-1 (Mus musculus) (UniProt P29452); assay: Inhibition of mouse recombinant ICE assessed as ratio of irreversible rate constant K3 to dissociation constant of the reversible binding step Ki pre-incubated for 60 mins with Acetyl-Tyr-Val-Ala-Asp-amino-4-methylcoumarin substrate followed by enzyme addition by fluorescence based assay
T3 sequence (whole entry): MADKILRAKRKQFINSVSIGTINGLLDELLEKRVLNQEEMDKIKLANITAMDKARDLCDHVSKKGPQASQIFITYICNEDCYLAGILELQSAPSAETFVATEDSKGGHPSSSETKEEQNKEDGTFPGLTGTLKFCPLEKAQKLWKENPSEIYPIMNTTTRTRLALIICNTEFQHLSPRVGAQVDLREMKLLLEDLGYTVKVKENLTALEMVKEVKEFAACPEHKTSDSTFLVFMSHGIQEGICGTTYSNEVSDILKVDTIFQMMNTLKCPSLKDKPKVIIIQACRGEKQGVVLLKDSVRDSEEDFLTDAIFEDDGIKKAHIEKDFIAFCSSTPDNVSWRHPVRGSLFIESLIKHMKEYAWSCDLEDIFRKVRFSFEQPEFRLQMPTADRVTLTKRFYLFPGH

| SMILES | Ratio [1] [M⁻¹ s⁻¹] | Ratio [2] [M⁻¹ s⁻¹] | Ratio [3] [M⁻¹ s⁻¹] | Ratio [4] [M⁻¹ s⁻¹] |
| --- | --- | --- | --- | --- |
| CC(C)[C@H](NC(=O)C(=O)Nc1cccc2ccccc12)C(=O)N[C@@H](CC(=O)O)C(=O)COP(=O)(c1ccccc1)c1ccccc1 | 222000 | 2.45e+06 | 876000 | 2.95e+06 |
| CC(C)[C@H](NC(=O)C(=O)Nc1cnccn1)C(=O)N[C@@H](CC(=O)O)C(=O)COc1c(F)c(F)cc(F)c1F |  |  | 149000 |  |
| CC(C)[C@H](NC(=O)C(=O)Nc1cccc2ccccc12)C(=O)N[C@@H](CC(=O)O)C(=O)COC(=O)c1c(Cl)cccc1Cl |  | 119000 | 740000 |  |
| COC(=O)c1cc(OCC(=O)[C@H](CC(=O)O)NC(=O)[C@@H](NC(=O)C(=O)Nc2cccc3ccccc23)C(C)C)no1 | 12800 | 88800 | 264000 | 532000 |
| CC(C)[C@H](NC(=O)C(=O)Nc1cccc2ccccc12)C(=O)N[C@@H](CC(=O)O)C(=O)COc1ccnc(C(F)(F)F)n1 | 13300 | 60300 | 294000 | 1.07e+06 |
| CC(C)[C@H](NC(=O)C(=O)Nc1cccc2ccccc12)C(=O)N[C@@H](CC(=O)O)C(=O)COc1c(F)cc(F)cc1F |  | 189000 | 340000 |  |
| CC(C)[C@H](NC(=O)C(=O)Nc1cccc2ccccc12)C(=O)N[C@@H](CC(=O)O)C(=O)COP(C)(=O)c1ccccc1 (stereo partly specified) | 165000 | 847000 | 529000 | 1.4e+06 |
